The target of assay [1] is Cannabinoid receptor (Mus musculus) (UniProt P47746+P47936). The assay is described as follows: Selectivity for DBA/J2 mouse CB2 receptor over CB1 receptor. Format: protein assay.
In the next assay the target is Cannabinoid receptor 1 (Mus musculus, UniProt P47746). The assay is described as follows: Displacement of [3H]CP-55940 from CB1 receptor in DBA/J2 mouse brain. Format: tissue-based. Put shortly:
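Membranes (40-60 µg protein) from mouse brain minus cerebellum (CB1) or spleen (CB2), incubated 1 h at 30 °C with 0.5 nM [3H]CP-55,940 in TME buffer (pH 7.4) with 5 mg/mL BSA. GF/C filtration, scintillation counting. IC50 by nonlinear fit, converted to Ki by Cheng-Prusoff; at least three membrane preparations.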

By UniProt entry, the sequences of proteins in these tests, tags left out. Where a name states a change or a piece, a line headed by the entry shows the natural chain unless it says otherwise.
UniProt P47746, whole entry, looked up: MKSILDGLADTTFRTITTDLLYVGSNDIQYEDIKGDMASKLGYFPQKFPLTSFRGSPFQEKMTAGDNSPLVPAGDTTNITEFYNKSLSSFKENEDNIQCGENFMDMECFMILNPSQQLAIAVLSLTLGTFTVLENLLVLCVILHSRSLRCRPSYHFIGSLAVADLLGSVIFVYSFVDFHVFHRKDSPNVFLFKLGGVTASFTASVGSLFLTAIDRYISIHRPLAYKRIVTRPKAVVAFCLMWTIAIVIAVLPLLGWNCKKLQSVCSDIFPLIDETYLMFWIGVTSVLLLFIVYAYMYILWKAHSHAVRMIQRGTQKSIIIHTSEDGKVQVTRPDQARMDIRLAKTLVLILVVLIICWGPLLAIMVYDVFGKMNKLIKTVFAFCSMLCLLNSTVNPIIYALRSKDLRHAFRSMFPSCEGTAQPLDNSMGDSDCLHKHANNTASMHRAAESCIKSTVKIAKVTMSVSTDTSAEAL
UniProt P47936: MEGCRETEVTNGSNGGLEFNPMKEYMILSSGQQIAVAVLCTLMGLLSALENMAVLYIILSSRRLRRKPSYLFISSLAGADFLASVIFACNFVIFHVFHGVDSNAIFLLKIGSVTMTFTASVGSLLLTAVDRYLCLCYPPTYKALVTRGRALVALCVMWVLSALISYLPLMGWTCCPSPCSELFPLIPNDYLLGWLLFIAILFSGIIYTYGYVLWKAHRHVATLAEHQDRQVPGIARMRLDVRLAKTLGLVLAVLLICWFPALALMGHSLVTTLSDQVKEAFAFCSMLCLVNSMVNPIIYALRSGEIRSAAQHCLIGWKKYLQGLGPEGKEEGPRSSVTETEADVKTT

In general, Ki refers to the equilibrium dissociation constant of an inhibitor or competing ligand from its target. A higher Ki goes with weaker binding. `O=C(NC1CCCCC1)c1cn(Cc2ccccc2F)c2nc(Cl)ccc2c1=O`: in assay [1], the Ratio Ki was found to be 9.5. For the same molecule, the affinity on Cannabinoid receptor 1, expressed as Ki, was 171 nM.

The values above are taken from ChEMBL document CHEMBL1137375, “Design, synthesis, and biological evaluation of new 1,8-naphthyridin-4(1H)-on-3-carboxamide and quinolin-4(1H)-on-3-carboxamide derivatives as CB2 selective agonists” (J Med Chem, 2006).
